Patent publication US7053101B2, “1,3,8-triazaspiro[4,5]decan-4-one derivatives useful for the treatment of ORL-1 receptor mediated disorders” (dated 2006)

Chains of the proteins cited; added tags and fusions are not shown. Lines headed by an entry give the natural chain unless they say otherwise; changes in a name come on top.
UniProt P41146: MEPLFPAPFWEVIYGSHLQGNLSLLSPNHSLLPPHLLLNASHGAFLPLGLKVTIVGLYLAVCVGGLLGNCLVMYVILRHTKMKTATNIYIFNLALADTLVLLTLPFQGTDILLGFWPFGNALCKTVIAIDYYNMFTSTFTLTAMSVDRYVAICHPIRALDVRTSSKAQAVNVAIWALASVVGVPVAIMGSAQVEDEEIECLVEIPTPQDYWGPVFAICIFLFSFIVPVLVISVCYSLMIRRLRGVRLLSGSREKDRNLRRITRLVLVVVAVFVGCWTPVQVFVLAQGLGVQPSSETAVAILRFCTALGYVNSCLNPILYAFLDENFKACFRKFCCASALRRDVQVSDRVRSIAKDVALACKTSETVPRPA

Target: human nociceptin receptor (ORL-1) (Homo sapiens, UniProt P41146)
Experiment: nociceptin receptor binding assay (125I-Tyr14-nociceptin displacement, HEK293 cell membranes)
Conditions: 125I-Tyr14-nociceptin 0.5 nM

Row | SMILES | IC50 [nM]
1 | O=C1NCN(Cc2ccccc2)C12CCN(Cc1ccccc1-c1ccco1)CC2 | 1590
2 | O=C1NCN(Cc2ccccc2)C12CCN(Cc1ccccc1-c1cccs1)CC2 | 2380
